Measured values published in PubChem BioAssay AID504332 (National Center for Advancing Translational Sciences (NCATS), 2011).
The list shows a part of the results, in another mix than the full data. Results filed as inconclusive are left out. Entries that show only a call come without a potency. Active and inactive are the calls of the source. Calls come from the whole dose curve; as a rule, active = well fitted inhibition curve with a large enough effect; inconclusive = small, poorly fitted or top-dose-only effect; inactive = no such curve, though single readings can be large or run the other way.

Sequences of proteins named here, by UniProt entry; tags and fusion partners are left off. Residues count along the entry.
UniProt Q96KQ7, 913-1193 limits assumed: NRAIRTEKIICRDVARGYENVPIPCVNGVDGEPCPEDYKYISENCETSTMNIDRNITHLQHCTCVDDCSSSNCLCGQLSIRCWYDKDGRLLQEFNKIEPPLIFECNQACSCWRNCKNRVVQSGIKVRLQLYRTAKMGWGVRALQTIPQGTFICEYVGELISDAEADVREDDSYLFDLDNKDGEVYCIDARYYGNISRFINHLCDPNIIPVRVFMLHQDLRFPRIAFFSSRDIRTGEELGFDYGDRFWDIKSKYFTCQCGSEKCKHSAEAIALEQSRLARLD

These compounds were tested against Histone-lysine N-methyltransferase EHMT2 (Homo sapiens) (UniProt Q96KQ7) (assay: qHTS Assay for Inhibitors of Histone Lysine Methyltransferase G9a). Conditions: G9a H3K9 monomethylation, AlphaScreen, 2 h; series mostly up to 102 µM.
Note: nearly all actives have a fitted effect of over 75% in size.
Potency is the fitted concentration of half-maximal effect.

| SMILES | activity, negative = inhibition | Potency |
| --- | --- | --- |
| CP(=S)(Nn1cnnc1)Oc1ccccc1 (configuration not stated) | inactive: 8.93% [at 12.7 µM] | – |
| CP(=O)(Nc1ccccc1Br)Oc1ccccc1 (configuration not stated) | inactive | – |
| COc1ccccc1OP(C)(=O)Nc1ccccc1 (configuration not stated) | inactive | – |
| CCOC(=O)c1ccc(NP(C)(=O)Oc2ccc(OC)cc2)cc1 (configuration not stated) | inactive | – |
| CCOP(C)(=S)SCC(=O)NC(C)C(=O)O (configuration not stated) | inactive | – |
| CP(=O)(Nc1ccccn1)Oc1ccc(Cl)cc1 (configuration not stated) | inactive | – |
| CP(=O)(Nc1ccc(SC(F)(F)F)cc1)Oc1ccc(Cl)cc1 (configuration not stated) | inactive | – |
| Cc1cccc(C)c1OP(C)(=O)Nc1ccc(SC(F)(F)F)cc1 (configuration not stated) | inactive | – |
| CP(=O)(Oc1ccccc1)OC(c1ccccc1)C(F)(F)F (configuration not stated) | inactive | – |
| CCc1ccc(OP(C)(=O)N2CCN(c3ccc([N+](=O)[O-])cc3)CC2)cc1 (configuration not stated) | inactive | – |
| CP(=O)(NC(=O)Nc1ccccc1)Oc1ccccc1 (configuration not stated) | inactive | – |
| Cc1cc(C)cc(OP(C)(=O)Nc2ccc(SC(F)(F)F)cc2)c1 (configuration not stated) | inactive | – |
| O=[N+]([O-])[O-].[NH4+] | inactive | – |
| CCN(CC)CCCOC(=O)C(O)(c1ccccc1)c1ccccc1 | inactive | – |
| COc1ccccc1OP(C)(=O)Nc1ccc(C)cc1 (configuration not stated) | inactive | – |
| Cc1ccc(NP(C)(=O)Oc2ccccc2)c(C)c1 (configuration not stated) | inactive | – |
| CCOC(=O)c1ccc(NP(C)(=O)Oc2ccccc2)cc1 (configuration not stated) | inactive | – |
| Cc1cc(C)cc(OP(C)(N)=O)c1 (configuration not stated) | inactive | – |
| COc1ccccc1OP(C)(=O)Nc1cc(Cl)ccc1C (configuration not stated) | inactive | – |

| SMILES | activity, negative = inhibition | Potency |
| --- | --- | --- |
| COc1ccc(OP(C)(=O)Nc2cccc(F)c2)cc1 (configuration not stated) | inactive | – |
| O=[N+]([O-])c1cc([N+](=O)[O-])c(Nc2cccnc2)c([N+](=O)[O-])c1 | inactive: -10.4% [at 2.33 µM] | – |
| CC(C)(C)c1ccc(OP(C)(=O)Nc2ccc(SC(F)(F)F)cc2)cc1 (configuration not stated) | inactive | – |
| Cc1cccc(C)c1OP(C)(N)=O (configuration not stated) | inactive | – |
| O=[N+]([O-])OCC(CO[N+](=O)[O-])(CO[N+](=O)[O-])CO[N+](=O)[O-] | inactive | – |
| O=[N+]([O-])c1cccc([N+](=O)[O-])c1 | inactive | – |
| Cc1ccc(C)c(NP(C)(=O)Oc2ccccc2)c1 (configuration not stated) | inactive: -29.8% [at 12.7 µM] | – |
| CP(=O)(Nc1cccc(Br)c1)Oc1ccccc1 (configuration not stated) | inactive | – |
| Cc1cc(C)cc(OP(C)(=O)Nc2ccccn2)c1 (configuration not stated) | inactive: -0.16% [at 12.7 µM] | – |
| COc1ccccc1OP(C)(=O)Nc1cccc(Br)c1 (configuration not stated) | inactive: 3.27% [at 12.7 µM] | – |
| CCOC(=O)c1ccc(NP(C)(=O)Oc2cc(C)cc(C)c2)cc1 (configuration not stated) | inactive | – |
| Cc1cc(C)cc(OP(C)(=O)Nc2ccc(C)cc2C)c1 (configuration not stated) | inactive | – |
| CN1CCCCC1COC(=O)C1(O)c2ccccc2CCc2ccccc21 (configuration not stated) | inactive | – |
| COc1ccccc1OP(C)(=O)Nc1c(C)cccc1C (configuration not stated) | inactive | – |
| CP(=O)(Nc1ccc(SC(F)(F)F)cc1)Oc1ccccc1 (configuration not stated) | inactive | – |
| CCCOc1ccc(NP(C)(=O)Oc2ccc(Cl)cc2)cc1 (configuration not stated) | inactive | – |
| O=[N+]([O-])c1cc([N+](=O)[O-])c(Nc2nnnn2CCO)c([N+](=O)[O-])c1 | – | active: 79.4 µM |
| CC1=C2N=C(C=C3N=C(C(C)=C4[N-][C@@](C)([C@@H]5N=C1[C@](C)(CCC(=O)NC[C@@H](C)OP(=O)([O-])O[C@H]1[C@@H](O)[C@@H](n6cnc7cc(C)c(C)cc76)O[C@@H]1CO)[C@H]5CC(N)=O)[C@@](C)(CC(N)=O)[C@@H]4CCC(N)=O)[C@@](C)(CC(N)=O)[C@@H]3CCC(N)=O)C(C)(C)[C@@H]2CCC(N)=O.[C-]#N.[Co+3] | inactive: -33.1% [at 12.7 µM] | – |
